Experimental findings from IntAct's records for PubMed 17052462 are described below.

B1: Catenin beta-1 (Homo sapiens), P35222 (parent)
chain: MATQADLMELDMAMEPDRKAAVSHWQQQSYLDSGIHSGATTTAPSLSGKGNPEEEDVDTSQVLYEWEQGFSQSFTQEQVADIDGQYAMTRAQRVRAAMFPETLDEGMQIPSTQFDAAHPTNVQRLAEPSQMLKHAVVNLINYQDDAELATRAIPELTKLLNDEDQVVVNKAAVMVHQLSKKEASRHAIMRSPQMVSAIVRTMQNTNDVETARCTAGTLHNLSHHREGLLAIFKSGGIPALVKMLGSPVDSVLFYAITTLHNLLLHQEGAKMAVRLAGGLQKMVALLNKTNVKFLAITTDCLQILAYGNQESKLIILASGGPQALVNIMRTYTYEKLLWTTSRVLKVLSVCSSNKPAIVEAGGMQALGLHLTDPSQRLVQNCLWTLRNLSDAATKQEGMEGLLGTLVQLLGSDDINVVTCAAGILSNLTCNNYKNKMMVCQVGGIEALVRTVLRAGDREDITEPAICALRHLTSRHQEAEMAQNAVRLHYGLPVVVKLLHPPSHWPLIKATVGLIRNLALCPANHAPLREQGAIPRLVQLLVRAHQDTQRRTSMGGTQQQFVEGVRMEEIVEGCTGALHILARDVHNRIVIRGLNTIPLFVQLLYSPIENIQRVAAGVLCELAQDKEAAEAIEAEGATAPLTELLHSRNEGVATYAAAVLFRMSEDKPQDYKKRLSVELTSSLFRTEPMAWNETADLGLDIGAQGEPLGYRQDDPSYRSFHSGGYGQDALGMDPMMEHEMGGHHPGADYPVDGLPDLGHAQDLMDGLPPGDSNQLAWFDTDL
partner: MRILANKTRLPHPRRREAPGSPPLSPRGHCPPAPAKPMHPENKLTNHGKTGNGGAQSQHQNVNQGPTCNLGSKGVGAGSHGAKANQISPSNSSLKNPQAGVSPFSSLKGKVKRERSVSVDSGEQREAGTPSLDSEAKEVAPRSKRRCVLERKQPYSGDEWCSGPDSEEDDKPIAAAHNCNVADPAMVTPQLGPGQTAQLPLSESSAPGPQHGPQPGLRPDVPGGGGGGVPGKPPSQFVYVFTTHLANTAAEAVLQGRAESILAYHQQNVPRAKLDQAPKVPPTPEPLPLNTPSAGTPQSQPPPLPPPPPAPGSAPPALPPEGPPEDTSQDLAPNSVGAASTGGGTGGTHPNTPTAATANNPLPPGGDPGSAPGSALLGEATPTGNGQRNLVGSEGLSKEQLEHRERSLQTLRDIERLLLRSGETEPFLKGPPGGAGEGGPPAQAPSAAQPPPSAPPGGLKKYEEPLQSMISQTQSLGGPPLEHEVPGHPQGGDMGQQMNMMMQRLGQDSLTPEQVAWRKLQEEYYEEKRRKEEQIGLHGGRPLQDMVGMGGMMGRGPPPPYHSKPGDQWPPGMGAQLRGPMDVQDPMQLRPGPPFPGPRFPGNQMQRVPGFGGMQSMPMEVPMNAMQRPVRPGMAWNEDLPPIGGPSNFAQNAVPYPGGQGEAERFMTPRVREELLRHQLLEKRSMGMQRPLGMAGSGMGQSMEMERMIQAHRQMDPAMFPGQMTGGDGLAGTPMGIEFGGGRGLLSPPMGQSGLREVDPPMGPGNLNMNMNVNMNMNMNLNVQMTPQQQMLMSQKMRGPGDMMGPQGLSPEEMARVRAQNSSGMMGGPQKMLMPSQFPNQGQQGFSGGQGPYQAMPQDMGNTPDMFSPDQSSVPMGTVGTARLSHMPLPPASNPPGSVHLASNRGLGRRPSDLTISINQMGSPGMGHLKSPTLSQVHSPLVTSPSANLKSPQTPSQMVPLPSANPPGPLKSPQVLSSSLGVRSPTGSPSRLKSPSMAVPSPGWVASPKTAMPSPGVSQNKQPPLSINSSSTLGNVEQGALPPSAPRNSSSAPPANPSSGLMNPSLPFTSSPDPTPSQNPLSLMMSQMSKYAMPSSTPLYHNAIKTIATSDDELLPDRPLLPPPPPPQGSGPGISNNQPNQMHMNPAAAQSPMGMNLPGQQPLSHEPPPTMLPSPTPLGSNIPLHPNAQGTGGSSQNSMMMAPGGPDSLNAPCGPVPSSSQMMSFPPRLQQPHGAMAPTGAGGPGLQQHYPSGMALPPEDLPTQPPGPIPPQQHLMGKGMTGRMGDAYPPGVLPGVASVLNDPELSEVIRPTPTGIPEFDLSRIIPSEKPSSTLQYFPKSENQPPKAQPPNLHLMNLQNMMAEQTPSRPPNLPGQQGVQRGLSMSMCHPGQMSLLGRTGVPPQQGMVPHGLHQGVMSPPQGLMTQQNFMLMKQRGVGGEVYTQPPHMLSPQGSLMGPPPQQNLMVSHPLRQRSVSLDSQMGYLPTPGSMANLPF

The variants in this assay derive from B1. As to conditions: with bcl9l_mouse Bcl9l.
As for Y142E, the “effect of a mutation on the interaction” value is reported as “with no effect”.
